Among the data in ChEMBL document CHEMBL1124824, “Synthesis and biological activity of atrial natriuretic factor analogues: effect of modifications to the disulfide bridge” (J Med Chem, 1990) are EC50 and IC50 values, retold here.

SMILES strings stand for the structures.

For assay [1], the species on record is Oryctolagus cuniculus. Kind of assay: Compound was tested for the inhibition of the stimulated contractions of the superfused rabbit thoracic aortic rings. The format is functional, Aorta. The method in brief:
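Rabbit thoracic aorta rings (4 mm) were held isometrically at 10-g resting tension, superfused and precontracted with phenylephrine. Test peptide was added to the superfusate above the tissue in successively higher doses after each recovery. Doses were based on peptide content. EC50 came from the dose-response curve, mean of three determinations ± SEM.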

For assay [2], the target named is T1, Atrial natriuretic peptide receptor 3 (Mus musculus, UniProt P70180).
T1 sequence (P70180 whole entry): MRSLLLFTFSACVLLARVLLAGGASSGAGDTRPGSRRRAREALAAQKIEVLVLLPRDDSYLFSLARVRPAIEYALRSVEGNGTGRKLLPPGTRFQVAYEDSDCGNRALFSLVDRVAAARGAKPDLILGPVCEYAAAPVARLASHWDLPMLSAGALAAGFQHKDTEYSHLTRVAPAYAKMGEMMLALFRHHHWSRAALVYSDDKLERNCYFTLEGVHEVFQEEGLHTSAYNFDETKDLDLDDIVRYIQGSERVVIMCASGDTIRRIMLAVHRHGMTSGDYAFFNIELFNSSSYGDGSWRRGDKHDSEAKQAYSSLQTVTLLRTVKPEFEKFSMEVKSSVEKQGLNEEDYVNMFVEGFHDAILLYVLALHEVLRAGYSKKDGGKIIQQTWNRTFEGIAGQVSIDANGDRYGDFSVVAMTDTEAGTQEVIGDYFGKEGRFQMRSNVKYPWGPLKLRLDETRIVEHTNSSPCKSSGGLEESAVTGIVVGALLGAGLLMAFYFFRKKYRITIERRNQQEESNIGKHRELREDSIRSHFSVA
In words: Binding affinity was determined based on the displacement of [125]r-ANF (99-126) from binding sites on mouse fibroblasts (NIH 3T3) cells (Atrionatriuretic peptide receptor C).

Assay [3] has as its target T2, Atrial natriuretic peptide receptor 2 (Bos taurus, UniProt P46197).
T2 sequence (P46197 whole entry): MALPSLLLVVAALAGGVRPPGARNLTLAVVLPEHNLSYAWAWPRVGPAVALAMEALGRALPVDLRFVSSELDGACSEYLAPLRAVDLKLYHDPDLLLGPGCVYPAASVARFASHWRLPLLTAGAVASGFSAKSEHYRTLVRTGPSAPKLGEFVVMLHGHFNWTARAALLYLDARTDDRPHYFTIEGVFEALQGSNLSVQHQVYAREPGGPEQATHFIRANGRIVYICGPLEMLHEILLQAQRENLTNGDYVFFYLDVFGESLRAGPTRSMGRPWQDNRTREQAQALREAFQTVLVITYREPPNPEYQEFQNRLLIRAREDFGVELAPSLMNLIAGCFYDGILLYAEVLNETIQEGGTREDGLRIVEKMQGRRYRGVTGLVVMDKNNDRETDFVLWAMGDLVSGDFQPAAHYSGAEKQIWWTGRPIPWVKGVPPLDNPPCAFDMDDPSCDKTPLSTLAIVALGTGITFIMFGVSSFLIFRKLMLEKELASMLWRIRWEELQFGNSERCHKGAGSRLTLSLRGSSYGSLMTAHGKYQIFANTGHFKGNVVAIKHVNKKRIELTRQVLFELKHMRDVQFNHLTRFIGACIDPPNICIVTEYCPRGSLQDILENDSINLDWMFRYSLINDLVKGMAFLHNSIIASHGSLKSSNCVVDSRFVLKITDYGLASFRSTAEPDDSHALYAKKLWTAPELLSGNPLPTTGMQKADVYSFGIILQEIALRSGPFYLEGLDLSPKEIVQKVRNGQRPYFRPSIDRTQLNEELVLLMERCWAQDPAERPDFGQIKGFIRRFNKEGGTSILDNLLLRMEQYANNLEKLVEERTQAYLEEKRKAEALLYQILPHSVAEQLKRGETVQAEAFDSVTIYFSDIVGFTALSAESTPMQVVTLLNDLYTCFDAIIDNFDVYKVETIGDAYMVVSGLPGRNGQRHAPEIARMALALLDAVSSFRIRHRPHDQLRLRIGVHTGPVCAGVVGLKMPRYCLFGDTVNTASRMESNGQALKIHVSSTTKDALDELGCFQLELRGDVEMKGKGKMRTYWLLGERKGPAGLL
In words: Binding affinity was determined based on the displacement of [125]r-ANF (99-126) from binding sites on bovine adrenal zona glomerulosa cell membranes (Atrionatriuretic peptide receptor B).

As to `CC[C@H](C)[C@@H]1NC(=O)[C@H](CCCN=C(N)N)NC(=O)[C@H](CC(=O)O)NC(=O)[C@H]([C@@H](C)CC)NC(=O)[C@H](CCCN=C(N)N)NC(=O)CNC(=O)CNC(=O)[C@H](Cc2ccccc2)NC(=O)[C@@H](NC(=O)[C@H](CO)NC(=O)[C@H](CO)NC(=O)[C@H](CCCN=C(N)N)NC(=O)[C@H](CCCN=C(N)N)NC(=O)[C@H](CC(C)C)NC(=O)[C@@H](N)CO)CSSC[C@@H](C(=O)N[C@@H](CC(N)=O)C(=O)N[C@@H](CO)C(=O)N[C@@H](Cc2ccccc2)C(=O)N[C@@H](CCCN=C(N)N)C(=O)N[C@@H](Cc2ccc(O)cc2)C(=O)O)NC(=O)CNC(=O)[C@H](CC(C)C)NC(=O)CNC(=O)[C@H](CO)NC(=O)[C@H](CCC(N)=O)NC(=O)[C@H](C)NC(=O)CNC1=O`, the EC50 in assay [1] stood at 3.8e-11 M 50ul-1. Moreover, the IC50 turned out to be 0.13 nM in assay [2] and 0.043 nM in assay [3].
